Experimental findings from US20060094649A1 (published 2006) are described below.

For test [1], the target named is HLA-A*0101 (human). The experiment in a line: competitive inhibition of 125I-human J chain peptide binding to purified HLA.
The target in test [2] is HLA-B*4501 (human). As to the kind of experiment: competition with labeled probe peptide, purified HLA class I.
The target of test [3] is HLA-B*4002 (human). The test is described as above.
In test [4] the target is HLA-B*4403 (human). The description is as above.
In test [5] the target is HLA-B*4402 (human). The test is described as above.
Test [6] has as its target HLA-B*4403 (human). As to the kind of experiment: competitive inhibition of radiolabeled probe peptide, purified HLA.
The target in a further test is HLA-B*4001 (human). Described as above.
For test [7], the target named is HLA-B*4501 (human). The test is described as above.
The target of test [8] is HLA-B*4501 (human). The experiment in a line: competition vs labelled reference peptide on HLA class I.
A further test has as its target HLA-A*1101 (human). As to the kind of experiment: competition vs 125I probe, purified HLA.
For test [9], the target named is HLA-B*1801 (human). The experiment in a line: competition with labeled probe peptide, purified HLA class I.
Test [10] has as its target HLA-B*4402 (human). As to the kind of experiment: competitive inhibition of radiolabeled probe peptide, purified HLA.
Test [11] addresses HLA-B*4002 (human). The test is described as above.
Test [12] concerns the target HLA-B*3501 (human). The experiment in a line: competitive inhibition of 125I-B35con2 binding to purified HLA.
The target of test [13] is HLA-A*0101 (human). As to the kind of experiment: inhibition of 125I-J chain peptide probe, purified HLA.
Another test deals with HLA-A*2402 (human). The experiment in a line: competitive inhibition of 125I-A24con binding to purified HLA.
Test [14] deals with HLA-B*1801 (human). As to the kind of experiment: competitive inhibition of radiolabeled probe peptide, purified HLA.
For test [15], the target named is HLA-B*1801 (human). As to the kind of experiment: competition with labeled probe peptide, purified HLA class I. This is another data set of the same source.
Test [16] concerns the target HLA-B*3501 (human). The experiment in a line: inhibition of 125I-B35con2 probe, purified HLA.

As to VTDLGLSY [MAGE2.179.D3 VTDLGLSY], in the test with HLA-A*0101 [1], the half-maximal inhibitory concentration (IC50) (commonly the concentration that inhibits the measured activity by half) was 0.0027 µM.
As to EEGLEARGEALGL [EEGLEARGEALGL (MAGE2, position 13)], the 50% inhibitory concentration (IC50) was 5.86 µM in the test with HLA-B*4501 [2], 18.5 µM with HLA-B*4002 [3], 4.47 µM in the test with HLA-B*4403 [4] and 2.52 µM with HLA-B*4402 [5].
For PEEGLEARGEA [PEEGLEARGEA (MAGE2, position 12)], the IC50 with HLA-B*4002 [3] is 18.6 µM. That is a double-digit micromolar value.
As to EEENLRKKG [EEENLRKKG (p53, position 285, 9-mer)], the IC50 with HLA-B*4403 [6] was found to be 0.706 µM; with HLA-B*4001 it was 0.687 µM; with HLA-B*4501 [7], 18.4 µM.
For GEGLACHQLCA [GEGLACHQLCA (Her2/neu position 506, 11-mer)], the 50% inhibitory concentration (IC50) in the test with HLA-B*4501 [8] was found to be 0.196 µM. In other words, the sub-micromolar range.
In turn, SVFSTTINR [MAGE2.69.V2R9 (SVFSTTINR)] gave a 50% inhibitory concentration (IC50) with HLA-A*1101 of 0.0063 µM. That is a single-digit nanomolar value.
As for QEAASSSSTL [QEAASSSSTL (position 36; protein printed as MAGE2 in the table of MAGE3-derived peptides)], the half-inhibitory concentration (IC50) with HLA-B*1801 [9] is 0.144 µM.
Take PEVGSDCTTIHY [PEVGSDCTTIHY (p53, position 223, 12-mer)]: the values for the IC50 with HLA-B*4402 [10], in the test with HLA-B*4403 [6] and with HLA-B*4002 [11] were 4.09 µM, 1.94 µM and 7.99 µM, respectively.
LPTTMNYPI [MAGE3.71.I9 …] showed an IC50 with HLA-B*3501 [12] of 0.343 µM.
In the test with HLA-A*0101 [13], PTDSPLNTSY [CEA.240.D3 PTDSPLNTSY] gave an IC50 of 0.266 µM.
As to KYVELVHFF [MAGE2.112.Y2F9 KYVELVHFF], the IC50 with HLA-A*2402 worked out at 0.0071 µM. In other words, the single-digit nanomolar range.
QETFSDL [QETFSDL (p53, position 16, 7-mer)]: the IC50 was 18.4 µM with HLA-B*4001, 18.1 µM in the test with HLA-B*4501 [7] and 8.51 µM in the test with HLA-B*1801 [14].
PEEKIWEELSM [PEEKIWEELSM (MAGE2, position 217)]: the half-inhibitory concentration (IC50) in the test with HLA-B*4501 [2] worked out at 15.5 µM; with HLA-B*4403 [4] it was 0.985 µM; with HLA-B*1801 [15] it was 6.04 µM.
In the test with HLA-B*1801 [15], DEGSSNQEEEG [DEGSSNQEEEG (MAGE2, position 84)] had a 50% inhibitory concentration (IC50) of 10.8 µM.
For the molecule LPTTMNYPI [MAGE3.7LI9 LPTTMNYPI], the midpoint of inhibition with HLA-B*3501 [16], the IC50, lay at 0.343 µM.
